Settings: male, C57B6/J, mouse, plasma, ip, 10 mg/kg

Work on CN(C)c1ccc(Nc2nc(-c3ccncc3)nc3c2CC(N)CC3)cc1 (stereo not shown) [Compound 14, N4-[4-(dimethylamino)phenyl]-2-(4-pyridyl)-5,6,7,8-tetrahydroquinazoline-4,6-diamine] yielded a tmax of 15 min.
